Assay results from article PMC6553790 (PLoS Pathogens, 2019).

Test system: P. falciparum Cam3.II lines
Experiment: Isobologram analyses (fixed-ratio drug combinations)
Type: cell-based, Plasmodium falciparum
Details: combined with WLL; Trophozoites, 3 hr exposure; Cam3.II K13WT
Method: Assays were performed with fixed ratios of drug combinations (1:0, 4:1, 2:1, 1:1, 1:2, 1:4, and 0:1), tested in duplicate. Combinations were prepared from 16×IC50 drug stocks and tested across a range of two-fold dilutions. Assays were conducted with asynchronous cultures exposed for 72 hr or with tightly synchronized rings or trophozoites (tested at 0–3 hr or 24–27 hr post-invasion, respectively) exposed for 3 hr. Post-pulse drug washouts were conducted as described above for in vitro determination of IC50 levels. IC50 values were derived for each compound tested alone, and fractional IC50 (FIC50) values were determined for each compound tested in combination (FIC50 = […]) and plotted for each drug combination. For each combination, the mean of the sums of FIC50 values at each combination (mean ΣFIC50) was also calculated and the results illustrated using heat maps.

## CN(C)c1ccc2nc3ccc(=[N+](C)C)cc-3sc2c1 [MB, methylene blue]
  Mean of the sums of FIC50 (mean ΣFIC50): 0.98
